Earlier results on two molecules are cited in patent publication US20030087395A1, “Cardiotrophin-like cytokine” (Human Genome Sciences, Inc., priority 1997, published 2003).

The test system of one series is GAS or ISRE. To be noted: element bound; adapted from Schidler and Darnell review; cited from earlier work.
Another series has as its system STATS. To be noted: numbers of the STATs activated; adapted from Schidler and Darnell review; cited from earlier work.

As to IL-2: g-C family ligand (lymphocytes), the “GAS or ISRE” value in the series on GAS or ISRE is recorded as “GAS”.

B1: IL-3: gp140 family ligand (myeloid) (protein, UniProt P08700 20-152, looked up)
Interleukin-3: APMTQTTPLKTSWVNCSNMIDEIITHLKQPPLPLLDFNNLNGEDQDILMENNLRRPNLEAFNRAVKSLQNASAIESILKNLLPCLPLATAAPTRHPIHIKDGDWNEFRRKLTFYLKTLENAQAQQTTLSLAIF
As for B1, in the series on STATS, the STATS is recorded as 5. The “GAS or ISRE” value in the series on GAS or ISRE was “GAS”.
